The source of these data is ChEMBL document CHEMBL1926607 (J Med Chem, 2011).

Amino acid sequences for entries named in this document (tags omitted).
UniProt P08908, whole entry: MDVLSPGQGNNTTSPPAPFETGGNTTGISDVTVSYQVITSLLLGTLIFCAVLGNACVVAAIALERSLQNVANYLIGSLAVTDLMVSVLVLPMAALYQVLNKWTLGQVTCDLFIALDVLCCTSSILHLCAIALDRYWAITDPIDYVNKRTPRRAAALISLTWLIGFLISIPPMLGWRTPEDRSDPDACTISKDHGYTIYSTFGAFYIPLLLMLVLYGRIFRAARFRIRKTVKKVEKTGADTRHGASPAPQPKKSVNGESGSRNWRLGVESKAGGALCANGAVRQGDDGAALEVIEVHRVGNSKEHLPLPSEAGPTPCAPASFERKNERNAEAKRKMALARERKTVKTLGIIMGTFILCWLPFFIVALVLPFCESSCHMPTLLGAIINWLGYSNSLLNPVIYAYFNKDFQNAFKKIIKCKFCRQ

Molecules are shown by their SMILES.

This assay deals with 5-hydroxytryptamine receptor 1A (Homo sapiens, UniProt P08908). As to the kind of experiment: Agonist activity at human 5HT1A receptor expressed in human HeLa cells assessed as inhibition of forskolin-stimulated cAMP production pretreated 20 mins before forskolin challenge measured after 2 hrs by RIA relative to control. Type of assay: functional, cell-based.

Turning to `O=C1C2CCCN2C(=O)N1CCCCNCC1CCc2ccccc2O1` (racemic), the Emax was 94.6%.
